Experimental data as given in BindingDB's records for 23618710 (National Institute On Drug Abuse and The National Institute …, 2013).

Amino acid sequences for entries named in this document (tags omitted).
UniProt P41143, whole entry, looked up: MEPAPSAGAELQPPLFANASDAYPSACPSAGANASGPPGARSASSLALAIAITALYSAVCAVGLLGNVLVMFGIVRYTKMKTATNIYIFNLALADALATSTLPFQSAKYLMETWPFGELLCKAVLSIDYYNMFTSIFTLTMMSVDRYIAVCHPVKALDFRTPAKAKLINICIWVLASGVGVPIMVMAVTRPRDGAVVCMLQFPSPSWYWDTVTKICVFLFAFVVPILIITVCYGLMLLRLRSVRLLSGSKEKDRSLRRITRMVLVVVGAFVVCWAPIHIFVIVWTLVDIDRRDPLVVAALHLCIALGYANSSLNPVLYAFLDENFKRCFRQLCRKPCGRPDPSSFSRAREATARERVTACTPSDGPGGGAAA

Biological target: Delta-type opioid receptor (Homo sapiens, UniProt P41143)
Experiment: Displacement of [3H]DADLE from human recombinant delta opioid receptor expressed in CHO cell membranes after 2 hrs by liquid scintillation counting analysis

In the case of `C=CCN1CC[C@@]2(CCc3ccccc3)c3cc(O)ccc3O[C@H]2C1`, the Ki is reported as 55 nM.
